Experimental data as given in ChEMBL document CHEMBL4800730.

Protein sequences, listed by entry. Tags and fused reporters are not part of them.
UniProt P41143, whole entry: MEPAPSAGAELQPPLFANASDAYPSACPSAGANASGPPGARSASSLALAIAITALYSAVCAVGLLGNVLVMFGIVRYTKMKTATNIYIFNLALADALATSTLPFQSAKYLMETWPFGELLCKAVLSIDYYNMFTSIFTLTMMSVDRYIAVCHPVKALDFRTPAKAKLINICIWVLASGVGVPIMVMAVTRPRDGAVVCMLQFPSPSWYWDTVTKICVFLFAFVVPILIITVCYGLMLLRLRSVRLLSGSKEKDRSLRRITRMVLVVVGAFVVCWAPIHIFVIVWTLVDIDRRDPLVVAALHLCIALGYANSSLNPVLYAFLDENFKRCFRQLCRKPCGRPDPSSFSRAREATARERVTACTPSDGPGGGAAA
UniProt P41145, whole entry: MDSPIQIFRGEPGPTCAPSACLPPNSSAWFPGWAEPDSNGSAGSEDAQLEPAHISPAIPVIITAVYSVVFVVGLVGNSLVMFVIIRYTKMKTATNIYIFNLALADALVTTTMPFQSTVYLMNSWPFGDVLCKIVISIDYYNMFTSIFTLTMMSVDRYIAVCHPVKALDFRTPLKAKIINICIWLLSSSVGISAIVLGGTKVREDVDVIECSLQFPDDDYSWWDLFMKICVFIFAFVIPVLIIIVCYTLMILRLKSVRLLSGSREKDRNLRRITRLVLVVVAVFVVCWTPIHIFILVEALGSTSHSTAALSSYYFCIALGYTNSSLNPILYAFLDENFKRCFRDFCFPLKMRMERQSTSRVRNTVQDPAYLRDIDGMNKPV
UniProt P35372, whole entry: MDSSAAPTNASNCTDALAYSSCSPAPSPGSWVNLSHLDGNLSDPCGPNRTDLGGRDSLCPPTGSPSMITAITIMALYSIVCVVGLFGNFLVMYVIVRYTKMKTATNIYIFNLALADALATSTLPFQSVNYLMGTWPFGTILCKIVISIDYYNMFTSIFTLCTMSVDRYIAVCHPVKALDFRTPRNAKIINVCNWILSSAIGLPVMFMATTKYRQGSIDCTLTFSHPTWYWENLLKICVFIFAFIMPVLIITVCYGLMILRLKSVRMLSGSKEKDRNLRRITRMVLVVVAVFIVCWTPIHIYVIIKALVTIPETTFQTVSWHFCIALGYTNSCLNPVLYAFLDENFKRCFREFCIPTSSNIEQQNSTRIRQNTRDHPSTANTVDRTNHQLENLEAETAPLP
UniProt Q99720, whole entry: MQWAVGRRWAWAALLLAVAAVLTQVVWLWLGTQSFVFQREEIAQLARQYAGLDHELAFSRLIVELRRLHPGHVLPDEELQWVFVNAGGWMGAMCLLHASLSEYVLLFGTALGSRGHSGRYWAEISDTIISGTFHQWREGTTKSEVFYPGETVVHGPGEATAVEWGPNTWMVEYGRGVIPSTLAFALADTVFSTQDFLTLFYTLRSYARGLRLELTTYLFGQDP

Experiments:
Conditions in all cases: Compound concentration 10.0 uM
[1] = target: Delta-type opioid receptor (Homo sapiens) (UniProt P41143); assay: GPCRScan assay: inhibition of DOR; set-up: radioligand conc. used [nm] 1.0 – 2.0, parental cells stable HEK
[2] = target: Kappa-type opioid receptor (Homo sapiens) (UniProt P41145); assay: GPCRScan assay: inhibition of KOR
[3] = target: Mu-type opioid receptor (Homo sapiens) (UniProt P35372); assay: GPCRScan assay: inhibition of MOR
[4] = target: Sigma non-opioid intracellular receptor 1 (Homo sapiens) (UniProt Q99720); assay: GPCRScan assay: inhibition of Sigma 1; set-up: radioligand conc. used [nm] 4.0 – 5.0, parental cells HEKT

Measured: inhibition

C=CC(=O)Nc1ccc2[nH]c(=O)n(C3CCN(Cc4ccc(-c5nc6cc[nH]c(=O)c6cc5-c5ccccc5)cc4)CC3)c2c1
inactive: [1] 24.1% | [2] 48.7% | [3] 32.4% | [4] 17.8%
